# Membrane permeability of cyclic peptides

Source: CycPeptMPDB (Li et al. 2023), which took these values from Naylor et al. 2018, doi:10.1021/acs.jmedchem.8b01259.

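Lipid, pH, incubation time, direction and concentration are not recorded in the data file. Other peptides of the study may be missing here. Entries at the database's floor value (log10 P of -10) are not listed.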

PAMPA measures passive passage through an artificial lipid membrane.
RRCK values come from monolayers of low-efflux MDCK cells.
Permeability is in 10^-6 cm/s, converted from the database's log10 values; higher is more permeable.

The entry for CCC[C@H]1NC(=O)[C@H](CC(C)C)NC(=O)[C@H](Cc2ccc(O)cc2)NC(=O)[C@H]2CCCN2C(=O)[C@H](CC2CCCCC2)NC(=O)[C@H](CC2CCCCC2)NC1=O lists PAMPA 6.6 × 10^-6 cm/s and RRCK 1.4 × 10^-6 cm/s.
The entry for CC[C@H]1NC(=O)[C@H](CC(C)C)NC(=O)[C@H](Cc2ccccc2)NC(=O)[C@H]2CCCN2C(=O)[C@H](CC2CCCCC2)NC(=O)[C@H](CC2CCCCC2)NC1=O lists PAMPA 4.5 × 10^-6 cm/s and RRCK 4.4 × 10^-6 cm/s.
The entry for CC[C@@H]1NC(=O)[C@@H](CC(C)C)NC(=O)[C@H](CC(C)C)NC(=O)[C@H](Cc2ccccc2)NC(=O)[C@H]2CCCN2C(=O)[C@H](CC(C)C)NC1=O lists PAMPA 4.3 × 10^-6 cm/s and RRCK 7.6 × 10^-6 cm/s.
The entry for CC(C)C[C@@H]1C(=O)N(C)[C@@H](CC(C)C)C(=O)N[C@@H](C)C(=O)N2CCC[C@@H]2C(=O)N(C)[C@@H](Cc2ccccc2)C(=O)N[C@@H](C)C(=O)N1C lists PAMPA 7.9 × 10^-6 cm/s and RRCK 27 × 10^-6 cm/s.
The entry for CC(C)C[C@@H]1NC(=O)[C@H](Cc2ccccc2)N(C)C(=O)[C@H]2CCCN2C(=O)[C@H](CC(C)C)NC(=O)[C@H](C)N(C)C(=O)[C@@H](C)N(C)C1=O lists PAMPA 8.3 × 10^-6 cm/s and RRCK 19 × 10^-6 cm/s.
The entry for CC(C)C[C@@H]1NC(=O)[C@H](Cc2ccccc2)N(C)C(=O)[C@H]2CCCN2C(=O)[C@H](CC(C)C)NC(=O)[C@H](CC(C)C)N(C)C(=O)[C@@H](CC(C)C)N(C)C1=O lists PAMPA 0.69 × 10^-6 cm/s and RRCK 19 × 10^-6 cm/s.
The entry for CC(C)C[C@@H]1NC(=O)[C@H](CC(C)C)N(C)C(=O)[C@H]2CCCN2C(=O)[C@H](CC(C)C)NC(=O)[C@H](Cc2ccccc2)N(C)C(=O)[C@H]2CCCN2C1=O lists PAMPA 10 × 10^-6 cm/s and RRCK 27 × 10^-6 cm/s.
The entry for C/C=C/C[C@@H](C)[C@@H](O)[C@H]1C(=O)N[C@@H]([C@@H](C)O)C(=O)N(C)CC(=O)N(C)[C@@H](CC(C)C)C(=O)N[C@@H](C(C)C)C(=O)N(C)[C@@H](CC(C)C)C(=O)N[C@@H](C)C(=O)N[C@H](C)C(=O)N(C)[C@@H](CC(C)C)C(=O)N(C)[C@@H](CC(C)C)C(=O)N(C)[C@@H](C(C)C)C(=O)N1C lists PAMPA 1.5 × 10^-6 cm/s and RRCK 0.46 × 10^-6 cm/s.
The entry for CC[C@@H]1C(=O)N(C)[C@@H](CC)C(=O)N[C@@H](CC(C)C)C(=O)N2CCC[C@@H]2C(=O)N(C)[C@@H](Cc2ccccc2)C(=O)N[C@@H](CC(C)C)C(=O)N1C lists PAMPA 10 × 10^-6 cm/s and RRCK 32 × 10^-6 cm/s.
The entry for CC(C)C[C@@H]1NC(=O)[C@H](Cc2ccc(O)cc2)NC(=O)[C@H]2CCCN2C(=O)[C@H](CC(C)C)NC(=O)[C@H](CC(C)C)NC(=O)[C@@H](C)NC1=O lists PAMPA 0.31 × 10^-6 cm/s and RRCK 0.81 × 10^-6 cm/s.
The entry for CC(C)C[C@@H]1NC(=O)[C@H](Cc2ccc(O)cc2)NC(=O)[C@H]2CCCN2C(=O)[C@H](CC(C)C)NC(=O)[C@H](CC2CCCCC2)NC(=O)[C@@H](CC(C)C)NC1=O lists PAMPA 8.1 × 10^-6 cm/s and RRCK 1.8 × 10^-6 cm/s.
The entry for CC[C@@H]1C(=O)N(C)[C@@H](C)C(=O)N[C@@H](CC(C)C)C(=O)N2CCC[C@@H]2C(=O)N(C)[C@@H](C)C(=O)N[C@@H](CC(C)C)C(=O)N1C lists PAMPA 2.4 × 10^-6 cm/s and RRCK 3.1 × 10^-6 cm/s.

The first 2 entries again:

Listed for CCC[C@H]1NC(=O)[C@H](CC(C)C)NC(=O)[C@H](Cc2ccc(O)cc2)NC(=O)[C@H]2CCCN2C(=O)[C@H](CC2CCCCC2)NC(=O)[C@H](CC2CCCCC2)NC1=O: PAMPA 6.6 × 10^-6 cm/s and RRCK 1.4 × 10^-6 cm/s.
Listed for CC[C@H]1NC(=O)[C@H](CC(C)C)NC(=O)[C@H](Cc2ccccc2)NC(=O)[C@H]2CCCN2C(=O)[C@H](CC2CCCCC2)NC(=O)[C@H](CC2CCCCC2)NC1=O: PAMPA 4.5 × 10^-6 cm/s and RRCK 4.4 × 10^-6 cm/s.